{"source": "patent EP4843994A1", "about": "“NOVEL PEPTIDE HAVING MUSCLE FORMATION-PROMOTING ACTIVITY, ANTI-OBESITY ACTIVITY AND ANTI-DIABETIC ACTIVITY AND USES THEREOF” (dated 2026)", "key": {"C2C12 cells": {"tested_on": "C2C12 cells", "assay": "Expression of differentiation markers and muscle protein synthesis signaling proteins in differentiation-induced myoblasts (Western blot)", "details": "differentiation medium, peptide 5 µM, 50 µM, three days", "method": "C2C12 cells (mouse-derived myoblasts) were cultured in DMEM medium containing 1% P/S and 2% BCS (bovine calf serum). When cell confluency reached 70 to 80%, cells were seeded into 6-well culture plates at a concentration of 5 x 10^5 cells/2 ml. Subsequently, when cell confluency reached 100% in a 6-well culture plate, the differentiation medium (1% P/S, 2% horse serum) and peptide (5 µM, 50 µM) were replaced. Afterward, the differentiation medium (1% P/S, 2% horse serum) and peptide (5 µM, 50 µM) were replaced every two days, and lysis buffer was added to lyse the cells three days after the first replacement. Subsequently, the cell lysate was centrifuged at 4°C and 12,000 rpm for 30 minutes to obtain the protein. The obtained protein was quantified using a BCA kit. The protein was electrotransferred onto a membrane after performing SDS-PAGE (sodium dodecyl sulfate-polyacrylamide gel electrophoresis). After blocking the protein-attached membrane with 5% skim milk, the membrane was treated with the primary antibody and reactioned overnight at 4°C. The primary antibodies used are as follows: anti-α-actinin antibody (Santa Cruz, USA); anti-MyoG antibody (Santa Cruz, USA); anti-Myf6 antibody (Abcam, UK); anti-SIRT1 antibody (Cell Signaling Technology, USA); anti-pAMPKα antibody (Cell Signaling Technology, USA); anti-pAKT antibody (Cell Signaling Technology, USA); anti-pmTOR antibody (Cell Signaling Technology, USA); anti-p70S6 Kinase antibody (Cell Signaling Technology, USA); anti-α-tubulin antibody (Santa Cruz, USA). The reactant was washed with PBS-T, then reacted with secondary antibodies (Peroxidase-conjugated AffiniPure Goat Anti-Rabbit IgG (H+L), Jackson immunoResearch, USA; Peroxidase-conjugated AffiniPure Goat Anti-Mouse IgG (H+L), Jackson immunoResearch, USA) at room temperature for 1 hour, washed again with PBS-T, and then visualized by treatment with a Western detection reagent (Elpis Biotech, Daejeon, Korea) using Gel Doc (Bio-Rad, Hercules, CA, USA)."}, "3T3-L1 cells": {"tested_on": "3T3-L1 cells", "assay": "Expression of adipogenesis and lipolysis related genes in insulin resistance-induced adipocytes (RT-PCR)", "details": "3T3-L1 adipocytes, 350 µM oleic acid (insulin resistance environment), peptide 5 µM, 50 µM, 48 hours", "method": "3T3-L1 cells (preadipocytes, American Type Culture Collection) were cultured in DMEM medium containing 2% BCS (Bovine Calf Serum) (Welgene, Korea). To differentiate 3T3-L1 cells into adipocytes, cells were seeded into 12-well culture plates at a concentration of 1 x 10^5 cells/well, and when the cells became confluent (Day=2), the medium was replaced once more and cultured for an additional 48 hours. After 48 hours (Day=0), the culture medium was replaced with DMEM medium containing 10% FBS, 1% P/S, 1 µg/ml insulin (Sigma, USA), 0.5 mM isobutylmethylxanthine (IBMX) (Sigma, USA), and 1 µM Dexamethasone (Sigma, USA), and cultured. After 2 days (Day=2), the medium was replaced with DMEM medium containing 10% FBS, 1% P/S, and 1 µg/ml insulin, and cultured. After 3 days (Day=5), the medium was replaced with one containing only 10% FBS and 1% P/S, and an insulin resistance environment was induced by treating with 350 µM oleic acid (Sigma, St. Louis, MO, USA) for 24 hours. After 24 hours of induction, the DMEM medium (10% FBS, 1% BSA) supplemented with 350 µM oleic acid (Sigma, St. Louis, MO, USA) and peptides (5 µM, 50 µM) was replaced, and the cells were cultured for 48 hours. After culture, the cells were harvested, and RNA was extracted using Trizol (Thermo Fisher Scientific, USA). The extracted RNA was used to synthesize DNA complementary to the RNA using TOPScript™ RT DryMIX (enzynomics, Korea), and then polymerase chain reaction (PCR) was performed on genes of markers related to adipogenesis and lipolysis using TOPsimple™ DryMIX-nTaq (enzynomics, Korea). Subsequently, the reaction products were run on a 1.5% agarose gel to compare the mRNA expression levels of the markers for each sample. The primer sequences for the genes used in the PCR are listed in Table 9 below, and the GAPDH gene was used as a control group.\nThrough the above experiment, after inducing an insulin resistance environment in 3T3-L1 adipocytes, the inhibitory effect on adipogenesis or the promotion effect of lipolysis by peptide treatment was confirmed by measuring the expression levels of related factors. […] Additionally, in 3T3-L1 adipocytes, treatment with oleic acid decreased the expression levels of the PLIN, HSL, and ATGL genes, which are factors related to lipolysis; however, when the peptide was added, the decreased expression levels of the PLIN, HSL, and ATGL genes increased again (FIGS. 21A and 21B)."}, "HepG2 cells": {"tested_on": "HepG2 cells", "assay": "Expression of adipogenesis and lipolysis related proteins in hepatocytes (Western blot)", "details": "500 µM oleic acid, peptide 5 µM, 50 µM, 48 hours", "method": "HepG2 cells (human-derived hepatocytes) were cultured in DMEM medium comprising 1% P/S and 10% FBS. When cell confluency reached approximately 70 to 80%, cells were seeded into a 12-well culture plate at a concentration of 1 x 10^5 cells/1 ml. Subsequently, when cell confluency reached approximately 70 to 80% in a 12-well culture plate, the medium was replaced with serum-free DMEM. After 4 hours, lipid accumulation was induced by replacing the medium with serum-free DMEM (1% BSA) supplemented with 500 µM oleic acid (Sigma, St. Louis, MO, USA). After inducing fat accumulation for 24 hours, the cells were cultured for 48 hours with serum-free DMEM (1% BSA) supplemented with 500 µM oleic acid (Sigma, St. Louis, MO, USA) and peptides (5 µM, 50 µM). After culture, lysis buffer was added to lyse the cells, and the cell lysate was centrifuged at 4°C and 12,000 rpm for 30 minutes to obtain the protein. The obtained protein was quantified using a BCA kit. The protein was electrotransferred onto a membrane after performing SDS-PAGE (sodium dodecyl sulfate-polyacrylamide gel electrophoresis). After blocking the protein-attached membrane with 5% skim milk, the membrane was treated with the primary antibody and reacted overnight at 4°C. The primary antibodies used were as follows: anti-SREBP1 antibody (Abcam, UK); anti-FAS antibody (Cell signaling Technology, USA); anti-ATGL antibody (Cell signaling Technology, USA); anti-pHSL antibody (Cell signaling Technology, USA); anti-β-actin antibody (Santa Cruz, USA). The reactant was washed with PBS-T, then the secondary antibodies (Peroxidase-conjugated AffiniPure Goat Anti-Rabbit IgG (H+L), Jackson immunoResearch, USA; Peroxidase-conjugated AffiniPure Goat Anti-Mouse IgG (H+L), Jackson immunoResearch, USA) were reacted at room temperature for 1 hour, washed again with PBS-T, and then visualized using Gel Doc (Bio-Rad, Hercules, CA, USA) by treatment with Western detection reagent (Elpis Biotech, Daejeon, Korea)."}}}
{"molecule": "C[C@@H](O)[C@H](NC(=O)CNC(=O)[C@@H](N)Cc1c[nH]cn1)C(=O)N[C@@H](Cc1ccc(O)cc1)C(=O)O", "values": [{"measurement": "expression of Myf6 protein", "setting": "C2C12 cells", "value": "increased in a concentration-dependent manner"}, {"measurement": "expression of MyoG protein", "setting": "C2C12 cells", "value": "increased in a concentration-dependent manner"}, {"measurement": "expression of SIRT1 protein", "setting": "C2C12 cells", "value": "increased in a concentration-dependent manner"}, {"measurement": "expression of p70S6K protein", "setting": "C2C12 cells", "value": "increased in a concentration-dependent manner"}, {"measurement": "expression of pAKT protein", "setting": "C2C12 cells", "value": "increased in a concentration-dependent manner"}, {"measurement": "expression of pAMPKα protein", "setting": "C2C12 cells", "value": "increased in a concentration-dependent manner"}, {"measurement": "expression of pmTOR protein", "setting": "C2C12 cells", "value": "increased in a concentration-dependent manner"}, {"measurement": "expression of α-actinin protein", "setting": "C2C12 cells", "value": "increased in a concentration-dependent manner"}, {"measurement": "expression level of the ATGL gene", "setting": "3T3-L1 cells", "value": "increased again"}, {"measurement": "expression level of the FAS gene", "setting": "3T3-L1 cells", "value": "decreased again"}, {"measurement": "expression level of the HSL gene", "setting": "3T3-L1 cells", "value": "increased again"}, {"measurement": "expression level of the PLIN gene", "setting": "3T3-L1 cells", "value": "increased again"}, {"measurement": "expression level of ATGL protein", "setting": "HepG2 cells", "value": "increased again"}, {"measurement": "expression level of pHSL protein", "setting": "HepG2 cells", "value": "increased again"}, {"measurement": "expression of FAS protein", "setting": "HepG2 cells", "value": "decreased again"}, {"measurement": "expression of SREBP1 protein", "setting": "HepG2 cells", "value": "decreased again"}]}
